Measured values reported in patent US20070212677A1, “Identifying off-target effects and hidden phenotypes of drugs in human cells” (Odyssey Thera, Inc., priority 2004, published 2007).

Amino acid sequences for entries named in this document (tags omitted). Residues count along the entry.
UniProt P37231, 29-505: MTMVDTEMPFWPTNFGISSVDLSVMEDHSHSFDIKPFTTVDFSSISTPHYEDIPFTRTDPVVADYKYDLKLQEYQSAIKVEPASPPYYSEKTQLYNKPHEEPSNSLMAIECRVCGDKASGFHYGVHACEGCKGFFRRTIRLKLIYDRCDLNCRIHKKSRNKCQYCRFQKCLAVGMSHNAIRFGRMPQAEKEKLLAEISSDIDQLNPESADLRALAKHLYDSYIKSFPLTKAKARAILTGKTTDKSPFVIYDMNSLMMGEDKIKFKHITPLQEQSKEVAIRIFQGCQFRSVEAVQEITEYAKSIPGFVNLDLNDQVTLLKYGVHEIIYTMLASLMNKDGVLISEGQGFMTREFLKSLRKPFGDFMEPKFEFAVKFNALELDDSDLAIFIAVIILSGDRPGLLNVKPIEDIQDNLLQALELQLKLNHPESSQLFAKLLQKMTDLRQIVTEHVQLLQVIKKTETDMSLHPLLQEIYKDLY

Biological target: RXR-alpha:PPAR-gamma (Homo sapiens, UniProt P37231)
Assay: RXR-alpha:PPAR-gamma PCA
Conditions: 480 minutes; FIG. 18

`CN(CCOc1ccc(C[C@H](Nc2ccccc2C(=O)c2ccccc2)C(=O)O)cc1)c1ccccn1` [GW1929] was tested, and the “activity on RXRα:PPARγ assay” value was “ligand-specific activity was detected”.
